The numbers were not newly measured in PMC8380238, “Structure-based virtual screening of CYP1A1 inhibitors: towards rapid tier-one assessment of potential developmental toxicants” (Archives of Toxicology, 2021), which cites them from elsewhere.

The subject of this series is human CYP1A1. Set-up: unit not given beside the values. The settings on record: cited from earlier work.

As to Diniconazole, the AC50 is listed as -0.1525.
